Measured values taken from US11590197B2.

How the values were obtained:
MOLT-4 cells = experiment: Cell viability / proliferation assay (ATPlite), MOLT-4; assay type: cell-based, human; settings: 48 hrs; range in words
H929 and L363 cells = experiment: MTS assay, LCL161-sensitive multiple myeloma cell lines; settings: H929 and L363, 48 hr, 20 μM; result in words
BxPC3 and PANC-1 cells = experiment: Co-treatment with gemcitabine (GEM) and IAP inhibitors, BxPC3 and PANC-1; settings: GEM 24 h, then GEM + 15 μM IAP inhibitor 24 h, result in words

SMILES: CN[C@@H](C)C(=O)N[C@@H](CNC(=O)c1ccc(S(=O)(=O)F)cc1)C(=O)N1CCC[C@@H]1c1cncc(Cc2cccc(F)c2)n1
- IC50, cell viability of MOLT-4 (MOLT-4 cells): single digit micromolar range
- activity in LCL161-sensitive MM cell lines (H929 and L363 cells): approximately equipotent
- effect in combination with gemcitabine, BxPC3 and PANC-1 (pancreatic cancer cell lines, FIG. 10E) (BxPC3 and PANC-1 cells): significantly sensitize
- effect in combination with gemcitabine, BxPC3 and PANC-1 (pancreatic cancer cell lines, FIG. 10E) (BxPC3 and PANC-1 cells; listed as compound 34): significant synergism
